# Measurements published in US8822419B2, “Membrane resident peptide in anti-cancer peptides causes tumor cell necrosis rather than apoptosis of cancer cells” (The Research Foundation of State University of New York, priority 2008, dated 2014).
# Key:
# MiaPaCa-2 cells [1] = assay: LDH release into cell culture medium (CytoTox96) as marker for necrosis; format: cell-based, human; details: MiaPaCa-2 cells transfected with plasmid, 24 h, FIG. 8B condition 3
# Procedure: (§1) Cells from culture plates at 18, 44, 66 and 90 h time points were lysed in situ in cell lysis buffer [1% Triton X-100 in 0.05 M Tris-HCl (pH 8.0), […], 0.02% Na azide, 0.1 mg/ml phenylmethylsulfonylfluoride (PMSF), and 0.001 mg/ml Aprotinin]. Lysates were subjected to 10% SDS-PAGE followed by electrotransfer to nitrocellulose and immunoblotting with antibodies to GFP and p53 (Santa Cruz Biotechnology, Santa Cruz, Calif.). Antibody-labeled proteins were identified by chemiluminescence using ECL methodology (Amersham)(1). Assays for elevated caspase expression were performed using the Clontech (Palo Alto, Calif.) for caspase (CPP32) activity (2). As a positive control for the caspase activity assay, Mia-PaCa-2 cells were incubated with tumor necrosis factor (TNF) (Sigma, St. Louis, Mo.) at a concentration of 10 ng/ml for 24 h. In addition, to detect if significant cell necrosis occurred, the CytoTox96 assay was used (Promega, Madison, Wis.) for LDH released into the cell culture medium as performed on several breast cancer cell lines (2).
# MiaPaCa-2 cells [2] = assay: Caspase (CPP32) activity assay as marker for apoptosis; format: cell-based, human; details: MiaPaCa-2 cells transfected with plasmid, FIG. 8A condition 3
# Procedure: as §1
sequence,measurement,setting,value
ETFSDLWKLL [p53 17-26 peptide],LDH release,MiaPaCa-2 cells [1],do not release LDH
same,caspase expression versus untreated/background (condition 2),MiaPaCa-2 cells [2],almost five times the background level
